The data set is described as follows: Pharmacokinetics of HIP delivered intramuscularly and subcutaneously in rats (ELISA). In kind it is in vivo, rat. As for the experimental part: The following example illustrates the pharmacokinetics of the intramuscular and subcutaneous administration of HIP1, which is cleaved into HIP2.
The pharmacokinetics of HIP delivery with 20 rats with 5 rats per route of administration was evaluated. Similar to hamster-derived INGAP findings, the intramuscular (IM) route provided a better blood concentration of the material, but half-life determinations were under 30 minutes by ELISA measurements, as shown in FIG. 6.
(ELISA stands for enzyme-linked immunosorbent assay.)

This note sets out measurements from patent US8816047B2 (Cure DM Group Holdings, LLC, priority 2007, dated 2014).

Where two headings read alike, the source gives them in different places. A value given as a limit tells only on which side of the number the result lay.

Consider `CC[C@H](C)[C@H](NC(=O)[C@@H](N)Cc1c[nH]c2ccccc12)C(=O)NCC(=O)N[C@@H](CC(C)C)C(=O)N[C@@H](Cc1c[nH]cn1)C(=O)N[C@@H](CC(=O)O)C(=O)N1CCC[C@H]1C(=O)N[C@H](C(=O)N[C@@H](CCC(N)=O)C(=O)NCC(=O)N[C@H](C(=O)N[C@@H](CCC(=O)O)C(=O)N1CCC[C@H]1C(=O)N[C@@H](CC(N)=O)C(=O)NCC(=O)O)[C@@H](C)O)[C@@H](C)O` [HIP], for which the half-life – broadly, how long it takes for the measured level to halve – is less than 30 min (rat, in vivo, im, intramuscular, read-out: half-life) and “slightly longer half-life” (subcutaneous versus intramuscular).
